# Patent US8580814B2, “Methods of using (+)-1,4-dihydro-7-[(3S,4S)-3-methoxy-4-(methylamino)-1-pyrrolidinyl]-4- oxo-1-(2-thiazolyl)-1,8-naphthyridine-3-carboxylic acid for treatment of cancer” (priority 2006, dated 2013)
# Experiments:
# Format in all cases: cell-based
# [1] = tested on: HCT-116 cells with 6 fold lower ATR levels; test: MTT assay, sensitization (ATRFLOX); details: compound 72 hours
# Description: (§1) Cells were then incubated with 5% MTT for 1-2 hours and lysed. MTT was colorimetrically read at 570 nm and EC50's were determined using linear regression analysis.
# (§2) Sensitization was carried out with various chemical treatments.
# [2] = tested on: MO59J (DNAPKcs(−/−)) vs MO59K (DNAPKCs(+/+)); test: MTT assay, sensitization (DNAPKcs(−/−)); details: compound 72 hours
# Description: as §1, §2
# [3] = tested on: HCT-116 cells treated with 2 mM caffeine; test: MTT assay, sensitization (caffeine); details: 2 mM caffeine pre-treated for 16 hours, compound 72 hours
# Description: as §1, §2
substance,measurement,setting,value
bleomycin,"Sensitization, fold decrease in the EC50 for cytotoxicity (MTT): ATRFLOX",[1],1 fold
same,"Sensitization, fold decrease in the EC50 for cytotoxicity (MTT): DNAPKcs(−/−)",[2],4 fold
same,"Sensitization, fold decrease in the EC50 for cytotoxicity (MTT): Caffeine",[3],10 fold
